Results on 6 compounds are retold here after patent US8361998B2, “Compounds and their use as IKACh blockers” (AstraZeneca AB, priority 2010, dated 2013).

Protein sequences, listed by entry. Tags and fused reporters are not part of them.
UniProt P48544, whole entry: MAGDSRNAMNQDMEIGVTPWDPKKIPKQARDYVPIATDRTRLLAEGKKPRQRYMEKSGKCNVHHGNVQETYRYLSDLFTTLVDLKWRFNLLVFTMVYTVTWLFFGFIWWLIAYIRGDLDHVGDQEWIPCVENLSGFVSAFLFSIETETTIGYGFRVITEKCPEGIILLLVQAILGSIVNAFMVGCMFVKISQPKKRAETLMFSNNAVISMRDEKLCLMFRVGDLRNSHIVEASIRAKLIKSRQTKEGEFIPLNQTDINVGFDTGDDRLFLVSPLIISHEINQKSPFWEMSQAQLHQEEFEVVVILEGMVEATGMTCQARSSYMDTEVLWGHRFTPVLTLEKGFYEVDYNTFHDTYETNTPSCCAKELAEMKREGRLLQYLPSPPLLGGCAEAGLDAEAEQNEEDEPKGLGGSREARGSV
UniProt P48549, whole entry: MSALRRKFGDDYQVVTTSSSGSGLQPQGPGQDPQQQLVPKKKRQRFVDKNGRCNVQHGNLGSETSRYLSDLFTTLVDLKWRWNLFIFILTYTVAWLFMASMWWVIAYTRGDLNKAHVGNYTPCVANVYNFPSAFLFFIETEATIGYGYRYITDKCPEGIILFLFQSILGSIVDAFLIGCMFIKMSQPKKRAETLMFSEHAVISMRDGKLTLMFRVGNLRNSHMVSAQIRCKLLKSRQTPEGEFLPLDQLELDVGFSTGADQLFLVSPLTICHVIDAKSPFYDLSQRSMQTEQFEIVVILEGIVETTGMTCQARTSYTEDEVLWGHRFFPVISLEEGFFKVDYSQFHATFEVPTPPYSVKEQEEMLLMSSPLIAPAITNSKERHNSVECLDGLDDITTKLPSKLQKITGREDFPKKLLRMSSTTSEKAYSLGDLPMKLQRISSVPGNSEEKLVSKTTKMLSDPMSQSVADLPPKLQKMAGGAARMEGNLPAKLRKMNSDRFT

pIC50: −log10 of the molar value.

In the test the target is human cardiac ion channel proteins hKir3.1/Kir3.4 (Homo sapiens, UniProt P48544+P48549). In words: Atomic Absorption Screening (AAS) Rb efflux assay of hKir3.1/Kir3.4 block, carbachol/high K+ stimulated, 10-pt or 7-pt CR. The settings on record: read-out: IKACh IC50 10-pt CR, AAS, 10-pt CR (0.003 to 67 μmol/L), CHO-K1 cells expressing hKir3.1/Kir3.4, mean of >4 replicates. The text has this:
Human KCNJ3 encoding Kir3.1 (Genbank acc. No. NM_002239) was inserted between EcoRI and NotI in the pIRESneo3 vector (Clontech Laboratories, Inc. CA, USA). Human KCNJ5 encoding Kir3.4 (Genbank Acc. No. BC069482) was inserted between EcoR1 and Not1 in the pIRESpuro3 vector (Clontech Laboratories, Inc. CA, USA). A Kozak sequence (GCCACC) was introduced before the start codon ATG of both constructs. Chinese Hamster Ovary K1, CHO-FLP/IN, cells (Invitrogen Corporation, Paisley, UK) were transfected simultaneously using Lipofectamine 2000 reagent (Invitrogen Corporation, Paisley, UK). Geneticin 600 μg/mL (Invitrogen Corporation, Paisley, UK) and puromycin 3 μg/mL (BD Bioscience) were added to the cell culture medium 3 days after transfection. Two weeks after transfection, colonies had appeared and were manually picked and sorted to one cell per well in a 96-well plate. Cells were then tested for Kir3.1 and Kir3.4 expression using membrane potential assay, Western Blot and Immunocytochemistry. […] The cell line was re-sorted by flow cytometry and resulting clones were assayed electrophysiologically using IonWorks (Molecular Devices) and later validated on the Q-Patch (Sophion A/S).
The stable cell line was cultured in DMEM/F12 with Glutamax 1 (Invitrogen Corporation, Paisley, UK), supplemented with foetal bovine serum 10%, puromycin 3 μg/mL, hygromycin 300 μg/mL and geneticin 600 μg/mL (Invitrogen Corporation, Paisley, UK). Care was taken not to seed cells at too low density and cells were passaged at approximately 70-80% confluency. Cells used for patch-clamp experiments were prepared by washing using PBS (—Mg, —Ca^2+), 2 times, detached using Accutase (Sigma). For Q-Patch measurements, storage medium was prepared fresh by adding 1.25 mL of 1M Hepes (GibcoBRL) to 50 mL CHO-SFM II medium (GibcoBRL) and detached cells were diluted to 2 million cells/mL in this medium. Frozen (Cryopreserved) cells were used for Atomic Absorption Screening (AAS) and plated poly-D-lysine 384-well plates (Greiner) at a density of 11,000-13,000 cells/well, the day before assay.
The blocking effects of compounds on the human cardiac ion channel proteins hKir3.1/Kir3.4 were assessed in CHO-K1 cells stably expressing the channel proteins using Atomic Absorption Screening (AAS). Cells were washed and then loaded with 25 μL Rb-loading buffer for three hours at 37° C. After that, the cells were washed again and 25 μL of diluted compound was transferred to the cell plate, incubated for 5 min in RT, and then […] of Carbachol/high K+ (10 μM carbachol and 20 mM KCl final concentration) buffer added to stimulate the cells and open the Kir3.1/Kir3.4 channel. After 10 min stimulation, […] of the supernatant was transferred to a new microplate, 45 μL washing buffer added to the supernatant and the level of Rb in the supernatant was then measured using an Aurora ICR 8000. Compounds were studied at concentrations ranging from 0.003 to 67 μmol/L (dilutions by three, 10-pt CR) or from 0.037 to 27 μmol/L (dilutions by three, 7-pt CR).
Stock solutions of compounds were prepared in DMSO 10 mM and stored at RT. Buffers used for AAS contained (in mM): HEPES 20, NaCl 150, MgCl2 1.0, CaCl2 2.0 and NaH2PO4 0.8 and Glucose 10 (wash 1) or KCl 5 and Glucose 5 (wash 2) or KCl 5 (dilution buffer). The High K^+ channel opener buffer contained (in mM): HEPES 20, NaCl 130, MgCl2 1.0, CaCl2 2.0 and NaH2PO4 0.8 together with KCl 20. Solutions used for Q-Patch (extracellular) in mM: NaCl 145, KCl 4, CaCl2 2.0, MgCl2 1.0, HEPES 10 and glucose 10. The high K^+ extra cellular solution used for Q-Patch in mM: NaCl 96.7, KCl 50.7, CaCl2 2.0, MgCl2 1.0, HEPES 10 and glucose 10 while the intra cellular solution used was (in mM): KCl 120, CaCl2 5.374, MgCl2 1.75, EGTA 10, KOH 3.125, HEPES 10, Na2ATP 4.
Results are given as mean IC50 of >4 replicates (10-pt CR, AAS) or >3 replicates (7-pt CR, AAS). Some of the data in Table 1 are mean values of two or more runs. […]
`CCC[C@@H](CN1CC(O)C1C)N(C)C(=O)c1ccc(Cl)cc1` (single isomer, unassigned) [43.1, isomer 1]: the pIC50 is 5.89.
As to `CCC[C@@H](CN1CC(O)C1C)N(C)C(=O)c1ccc(Cl)cc1` (single isomer, unassigned) [43.1, isomer 2], the pIC50 was 5.52.
For the compound `CCC[C@@H](CN1CC(O)C1C)N(C)C(=O)c1ccc(Cl)cc1` (single isomer, unassigned) [43.4, isomer 1], the pIC50 is 5.77.
The figure for `CCC[C@@H](CN1CC(O)C1C)N(C)C(=O)c1ccc(Cl)cc1` (single isomer, unassigned) [43.4, isomer 2] is 6.14; for `CCC[C@@H](CN1CC(O)C1C)N(C)C(=O)c1ccc(F)c(F)c1` (single isomer, unassigned) [43.5, isomer 1] it is 5.08.
Turning to `CCC[C@@H](CN1CC(O)C1C)N(C)C(=O)c1ccc(F)cc1` (single isomer, unassigned) [43.6, isomer 1], the pIC50 is 5.02.
